Curated experimental data: fraction unbound values

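OPERA's authors assembled the values from existing databases and did not measure them anew. One number stands for a compound and property, with no spread given. Method, purity and exact conditions of the single measurements are not given. Where a salt, mixture or single isomer is drawn, the source does not say that exactly this form was tested. Unmarked limits or estimates from the upstream databases cannot be ruled out.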

The unbound fraction in human plasma runs from 0 (all bound) to 1 (all free).

structure (SMILES)	name	fu
C[C@]12C=CC3=C4CCC(=O)C=C4CC[C@H]3[C@@H]1CC[C@@H]2O	17beta-trenbolone	0.0999
CCN(CC)C(=O)[C@@H]1C=C2c3cccc4[nH]cc(c34)C[C@H]2N(C)C1	Lysergide	0.1
OCCOCCO	Diethylene glycol	0.97
COc1cc(OC)nc(Sc2cccc(Cl)c2C(=O)[O-])n1.[Na+]	Pyrithiobac-sodium	0.03087
CC(C)N(CCC(C(N)=O)(c1ccccc1)c1ccccn1)C(C)C (configuration not stated)	Disopyramide	0.3101
ClC1=C(Cl)[C@]2(Cl)[C@H]3[C@H]([C@@H]4C=C[C@H]3C4)[C@@]1(Cl)C2(Cl)Cl	Aldrin	0.0134
Cc1ccccc1-n1c(C)nc2ccccc2c1=O	Methaqualone	0.15
CC1(C)CCC(=Cc2ccc(Cl)cc2)C1(O)Cn1cncn1 (configuration not stated)	Triticonazole	0.1375
O=P(Oc1ccccc1)(Oc1ccccc1)Oc1ccccc1	Triphenyl phosphate	0.002852
O=C(O)c1cc(Oc2ccc(C(F)(F)F)cc2Cl)ccc1[N+](=O)[O-]	Acifluorfen	0.0068
CCC(C)(NC(=O)c1cc(Cl)c(C)c(Cl)c1)C(=O)CCl (configuration not stated)	Zoxamide	0.008788
CCC(C)C1(CC)C(=O)NC(=O)NC1=O (configuration not stated)	Butabarbital	0.74
c1ccc(-c2ccccc2)cc1	Biphenyl	0.01557
CCOc1cc(Oc2ccc(C(F)(F)F)cc2Cl)ccc1[N+](=O)[O-]	Oxyfluorfen	0.1216
CO[C@]12C[C@@H](COC(=O)c3cncc(Br)c3)CN(C)[C@@H]1Cc1cn(C)c3cccc2c13	Nicergoline	0.05
C#C[C@]1(O)C=C[C@H]2[C@@H]3CCC4=CC(=O)CC[C@@H]4[C@H]3CC[C@@]21CC	Gestodene	0.02033
O=[N+]([O-])c1ccccc1	Nitrobenzene	0.3844
CCCCCCCCn1sccc1=O	Octhilinone	0.02822
CCOC(=O)C1(c2ccccc2)CCN(C)CC1	Meperidine	0.42
c1cc[n+]2c(c1)-c1cccc[n+]1CC2	Diquat	0.7553
C=CCC1(C(C)C#CCC)C(=O)NC(=O)N(C)C1=O (configuration not stated)	Methohexital	0.26
CC(Cl)CCl (configuration not stated)	1,2-dichloropropane	0.5441
CN(C)c1ccc(C(=O)c2ccc(N(C)C)cc2)cc1	Michler's ketone	0.00959
CC(C)C[C@H]1C(=O)N2CCC[C@H]2[C@]2(O)O[C@](NC(=O)[C@@H]3C=C4c5cccc6[nH]c(Br)c(c56)C[C@H]4N(C)C3)(C(C)C)C(=O)N12.CS(=O)(=O)O	Bromocriptine mesylate	0.02459
COc1ccc(OC)c(C(O)C(C)N)c1 (configuration not stated)	Methoxamine	0.85
C#CCN1C(=O)COc2cc(F)c(N3C(=O)C4=C(CCCC4)C3=O)cc21	Flumioxazin	0.02835
Nc1c(Cl)c(Cl)nc(C(=O)O)c1Cl	Picloram	0.1163
O=P(OCCCl)(OCCCl)OCCCl	Tris(2-chloroethyl) phosphate	0.44
CC1(c2ccc(Oc3ccccc3)cc2)OC(=O)N(Nc2ccccc2)C1=O (configuration not stated)	Famoxadone	0.0097
CS(=O)(=O)c1cc(C(F)(F)F)ccc1C(=O)c1cnoc1C1CC1	Isoxaflutole	0.01605
O=C(Nc1ccccc1-c1ccc(Cl)cc1)c1cccnc1Cl	Boscalid	0.03167
Oc1cc(Cl)c(Cl)cc1Cl	2,4,5-Trichlorophenol	0.01266
COc1cc(OC)nc(Oc2cccc(Oc3nc(OC)cc(OC)n3)c2C(=O)[O-])n1.[Na+]	Bispyribac-sodium	0.0106
C=C1C[C@@H]2[C@H](CC[C@]3(C)C(=O)CC[C@@H]23)[C@@]2(C)C=CC(=O)C=C12	Exemestane	0.1
CC(Cl)(Cl)Cl	1,1,1-trichloroethane	0.6658
CC(C)(C)CC(C)(C)c1ccc(O)cc1	4-(1,1,3,3-Tetramethylbutyl)phenol	0.01903
CCOP(=O)(SC(C)CC)N1CCSC1=O (configuration not stated)	Fosthiazate	0.46
CC(C)N(C(=O)CCl)c1ccccc1	Propachlor	0.345
Nc1cnn(-c2ccccc2)c(=O)c1Cl	Chloridazon	0.4276
O=C(O)COc1nc(Cl)c(Cl)cc1Cl	Triclopyr	0.02173
CC(=O)O[C@H]1[C@@H](O)C[C@H](O[C@H]2[C@@H](O)C[C@H](O[C@H]3[C@@H](O)C[C@H](O[C@H]4CC[C@@]5(C)[C@H](CC[C@@H]6[C@@H]5C[C@@H](O)[C@]5(C)[C@@H](C7=CC(=O)OC7)CC[C@]65O)C4)O[C@@H]3C)O[C@@H]2C)O[C@@H]1C	beta-Acetyldigoxin	0.85
COc1ccc(C(=CC(=O)N2CCOCC2)c2ccc(Cl)cc2)cc1OC	Dimethomorph	0.09338
CCCCC(C#N)(Cn1cncn1)c1ccc(Cl)cc1 (configuration not stated)	Myclobutanil	0.08338
CCOC(=O)[C@]1(c2ccccc2)CCC=C[C@H]1N(C)C	Tilidine	0.345
C#CC(C)(C)NC(=O)c1cc(Cl)cc(Cl)c1	Propyzamide	0.06826
CC[N+]1(C)[C@@H]2C[C@@H](OC(=O)[C@H](CO)c3ccccc3)C[C@H]1[C@@H]1O[C@@H]12 (stereo partly drawn)	Oxitropium	0.93

5 of these entries, quoted again:

{"smiles": "Cc1ccccc1-n1c(C)nc2ccccc2c1=O", "name": "Methaqualone", "fu": "0.15"}
{"smiles": "COc1ccc(OC)c(C(O)C(C)N)c1", "stereo": "configuration not stated", "name": "Methoxamine", "fu": "0.85"}
{"smiles": "O=C(Nc1ccccc1-c1ccc(Cl)cc1)c1cccnc1Cl", "name": "Boscalid", "fu": "0.03167"}
{"smiles": "C=CCC1(C(C)C#CCC)C(=O)NC(=O)N(C)C1=O", "stereo": "configuration not stated", "name": "Methohexital", "fu": "0.26"}
{"smiles": "CC(C)N(CCC(C(N)=O)(c1ccccc1)c1ccccn1)C(C)C", "stereo": "configuration not stated", "name": "Disopyramide", "fu": "0.3101"}

From the experimental data distributed with OPERA 2.9.